Measurements taken from the kinase profiling compilation of Christmann-Franck et al. (2016).

Protein sequences, listed by entry. Tags and fused reporters are not part of them. Lines headed by an entry give the natural chain unless they say otherwise; changes in a name come on top.
UniProt P52333: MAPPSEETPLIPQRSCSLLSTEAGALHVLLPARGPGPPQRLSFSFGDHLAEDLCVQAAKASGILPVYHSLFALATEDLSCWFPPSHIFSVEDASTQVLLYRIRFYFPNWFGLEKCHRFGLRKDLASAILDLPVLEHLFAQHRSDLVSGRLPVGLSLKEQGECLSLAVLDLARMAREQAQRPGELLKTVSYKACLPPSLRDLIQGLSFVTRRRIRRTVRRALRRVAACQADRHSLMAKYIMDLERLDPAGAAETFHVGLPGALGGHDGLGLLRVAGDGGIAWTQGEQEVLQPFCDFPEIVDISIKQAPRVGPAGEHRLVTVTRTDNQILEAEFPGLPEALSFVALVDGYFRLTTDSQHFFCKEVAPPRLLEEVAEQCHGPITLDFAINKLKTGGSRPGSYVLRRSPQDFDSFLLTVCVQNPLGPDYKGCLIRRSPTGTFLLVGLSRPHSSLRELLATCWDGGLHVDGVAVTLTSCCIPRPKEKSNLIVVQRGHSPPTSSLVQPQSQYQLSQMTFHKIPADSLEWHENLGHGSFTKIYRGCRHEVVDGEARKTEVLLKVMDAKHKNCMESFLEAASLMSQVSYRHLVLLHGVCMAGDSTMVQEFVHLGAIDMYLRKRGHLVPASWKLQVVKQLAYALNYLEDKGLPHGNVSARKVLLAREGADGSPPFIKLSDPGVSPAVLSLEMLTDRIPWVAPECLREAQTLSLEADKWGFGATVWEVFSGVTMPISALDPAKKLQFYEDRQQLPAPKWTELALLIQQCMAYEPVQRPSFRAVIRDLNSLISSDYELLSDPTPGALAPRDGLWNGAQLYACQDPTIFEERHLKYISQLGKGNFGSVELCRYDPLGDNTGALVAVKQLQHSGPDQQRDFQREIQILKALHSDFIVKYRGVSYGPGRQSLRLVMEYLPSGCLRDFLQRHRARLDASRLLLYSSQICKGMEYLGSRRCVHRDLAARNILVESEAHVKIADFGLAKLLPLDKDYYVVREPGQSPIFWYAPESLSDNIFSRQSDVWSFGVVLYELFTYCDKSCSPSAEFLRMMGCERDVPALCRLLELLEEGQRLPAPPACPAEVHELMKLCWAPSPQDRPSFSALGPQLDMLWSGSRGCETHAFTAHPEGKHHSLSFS

Key:
Assay in all cases: KINOMEscan competition binding
Details in all cases: compound 10.0 µM
[1] = biological target: JAK3 JH1 catalytic (human) (UniProt P52333)
[2] = biological target: PRKACB (human) (UniProt P22694)
[3] = biological target: PRKACA (human) (UniProt P17612)

CC1=C(C(=O)Nc2cc3cn[nH]c3cc2F)C(c2ccc(C(F)(F)F)cc2)CC(=O)N1 (stereo not drawn)
kinase still bound, per cent of control [1]: 3.2% | kinase still bound, per cent of control [2]: 6.4% | kinase still bound, per cent of control [3]: 4.2%
